The series in a line: Assay of CD/co-solvent/water formulations of different compositions over 5 days (F8). The conditions noted are these: pH 5.0, 80 mg/mL SBE-β-CD, 5 mM citrate, target 4 mg/mL PF-00835231.
The mark [1] stands for this setting: Ethanol 0.75, PEG400 […] v/v, Polysorbate 80 […].

Each structure is given as a SMILES string.

One compound from patent US20230157998A1, “Methods of Inhibiting SARS-CoV-2 Replication and Treating Corona Virus Disease 2019” (Pfizer Inc., priority 2020, published 2023) can be followed below.

As to `COc1cccc2[nH]c(C(=O)N[C@@H](CC(C)C)C(=O)N[C@@H](C[C@@H]3CCNC3=O)C(=O)CO)cc12` [PF-00835231], the “Assay (Day 1)” value by setting is: (DMSO 0.75, PEG400 […] v/v) 4.0; (DMSO 3.0% v/v) 4.1; (Ethanol 0.75, DMSO […] v/v) 3.9; (Ethanol 0.75, PEG300 […] v/v) 3.8; under setting [1], 3.6; (Ethanol 0.75, PEG400 […] v/v) 3.6. Also, the “Assay (Day 1)” value is given as 3.8 (Ethanol 0.75, PG […] v/v) and 3.8 (PG 3.0% v/v). For the same compound, the “Assay (Day 5)” value (DMSO 0.75, PEG400 […] v/v) amounted to 3.9; the “Assay (Day 5)” value (DMSO 3.0% v/v) came to 4.3; the “Assay (Day 5)” value (Ethanol 0.75, DMSO […] v/v) was 3.9; the “Assay (Day 5)” value (Ethanol 0.75, PEG300 […] v/v) came to 3.7; the “Assay (Day 5)” value under setting [1] is reported as 3.5; the “Assay (Day 5)” value (Ethanol 0.75, PEG400 […] v/v) was determined as 3.6. For the same compound, the “Assay (Day 5)” value was determined as 3.8 (Ethanol 0.75, PG […] v/v) and 3.8 (PG 3.0% v/v).
